System: WEE1
Assay: Western blot, substrate protein degradation in hPBMC Cell
Type: cell-based, Human
Conditions: substrate protein remaining %, treated at 50 nM and 500 nM, 24 hours

Nc1cccc2c1CN(C1CCC(=O)NC1=O)C2=O (stereo not shown) [Lenalidomide, lenalidomide, reference compound]
Degradation of substrate protein WEE1: B (80%< substrate protein remaining %≤ 100%)

From patent publication EP4745138A1, “THIO-GLUTARIMIDO ISOINDOLINONE DERIVATIVE, BIFUNCTIONAL PROTEIN DEGRADER CONTAINING SAME, AND USES THEREOF” (Gluetacs Therapeutics (Shanghai) Co., Ltd., priority 2023, dated 2025)
